System: P388
Assay: In vivo antitumor activity against mouse P388 cells in 3PS31 test system at 100 mg/kg administered on day 1, 5 and 9 relative to control

Molecule `O=C(CCCSCCCl)Nc1ccc(P(=O)(O)O)cc1` has a T/C of 105%.
